Only a part is listed here, and it is no random draw. Some results for these compounds are left out of this collection, so the calls shown say nothing about other tests. The source made the active and inactive calls.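 How the source made its calls: active means activation above a per-plate cutoff, the mean activation of sample wells on that plate plus 3 SD (cut at about 8% in these data); inactive means the rest.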

The chains behind the UniProt entries cited, without tags or fusion partners.
UniProt P32245, whole entry: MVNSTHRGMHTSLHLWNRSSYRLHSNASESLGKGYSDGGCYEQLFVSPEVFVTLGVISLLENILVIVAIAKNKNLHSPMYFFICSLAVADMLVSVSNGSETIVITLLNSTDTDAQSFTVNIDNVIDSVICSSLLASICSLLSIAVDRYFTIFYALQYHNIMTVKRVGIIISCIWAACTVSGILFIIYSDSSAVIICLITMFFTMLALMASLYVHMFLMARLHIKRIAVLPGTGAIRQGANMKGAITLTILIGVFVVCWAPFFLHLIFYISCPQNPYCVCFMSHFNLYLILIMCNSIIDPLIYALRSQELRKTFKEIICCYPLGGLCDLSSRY

For this assay, the target named is Melanocortin receptor 4 (Homo sapiens) (UniProt P32245). The assay is described as follows: activators of MC4R beta-arrestin recruitment – cell-based, luminescence, agonist arm of biased-ligand search, primary screen (AID 540308). To be noted: U2OS MC4R beta-arrestin complementation, at 8.9 µM, hits give high values, percent of melanotan II response, DMSO zero. A general note: Activated receptors often draw arrestin, which recruitment assays turn into a signal.
As to `O=C(NCC1(N2CCCCC2)CCCCC1)c1cccc(Cl)c1`, the activation is inactive: -0.17%. As to `COc1cccc(C(=O)NCC2(N3CCCCC3)CCCCC2)c1`, the activation is inactive: -2.98%. As to `COc1ccc(Cl)cc1C(=O)NCC1(N(C)C)CCCCC1`, the activation is inactive: -0.72%. For the molecule `COc1cc(C(=O)NCC2(N(C)C)CCCCC2)c([N+](=O)[O-])cc1OC`, the activation was inactive: -0.92%.

Turning to `CN(C)C1(CNC(=O)c2ccc(Br)cc2)CCCCC1`, the activation is inactive: -1.34%. Take `CC(C)Oc1ccc(C(=O)NCC2(N(C)C)CCCCC2)cc1`: the activation is inactive: -1%. `O=C(OCCN1CCCC1)C(O)(c1ccccc1)c1ccccc1`: the activation is inactive: -1.31%.

As to `CN(C)c1cccc(C(=O)NCC2(N(C)C)CCCCC2)c1`, the activation was inactive: -2.94%. Then `C=C(C)C#CC(O)(C(=O)OC1CCN(C)CC1)c1ccccc1` (stereo unspecified), with inactive: -0.72%; and `COc1ccc(Br)c(C(=O)NCC2(N3CCCCC3)CCCCC2)c1`, with inactive: -0.47%; and `O=C(OC1CN2CCC1CC2)C(CO)(c1ccccc1)c1ccccc1` (stereo unspecified), with inactive: -0.49%. For `Cc1ccc(C(=O)NCC2(N3CCCCC3)CCCCC2)cc1`, the activation is inactive: -0.25%. Take `CCN(CC)CC(C)C(C)OC(=O)C(O)(c1ccccc1)c1ccccc1` (stereo unspecified): the activation was inactive: -1.47%. In the case of `COc1cc(SC)ccc1C(=O)NCC1(N(C)C)CCCCC1` it was inactive: -0.68%; in that of `CC(C)N1C(=O)CC2(CCN(CCOC(=O)C(O)(c3ccccc3)c3ccccc3)CC2)C1=O`, inactive: -1.62%. On to `CN1[C@@H]2CC[C@H]1CC(OC(=O)C(O)(c1ccccc1)c1ccccc1)C2` (stereo partly specified), for which the activation was inactive: -1.23%. In the case of `O=C(NCC1(N2CCCCC2)CCCCC1)c1cc([N+](=O)[O-])ccc1Cl` it was inactive: 3.99%. `COc1ccc(C(=O)NCC2(N(C)C)CCCCC2)cc1`: the activation is inactive: -1.05%. In the case of `Cc1cc(C(=O)NCC2(N3CCCCC3)CCCCC2)ccc1[N+](=O)[O-]` it was inactive: -1.16%; in that of `CCN1CCCC(OC(=O)C2(O)c3ccccc3C=Cc3ccccc32)C1` (stereo unspecified), inactive: -1.5%. Then `O=C(NCC1(N2CCCCC2)CCCCC1)c1cccc(Br)c1`, with inactive: 1.27%; and `C=CCN1CCN(CCOC(=O)C(O)(c2ccccc2)c2ccccc2)CC1`, with inactive: 4.36%; and `O=C(NCC1(N2CCCCC2)CCCCC1)c1cc(F)c(F)cc1Cl`, with inactive: -1.54%. Consider `Cc1ccccc1C(=O)NCC1(N2CCCCC2)CCCCC1`, for which the activation is inactive: -0.25%. Then `CN(C)C1CCCC1OC(=O)C(O)(c1ccccc1)c1ccccc1` (stereo unspecified), with inactive: 1.85%; and `CN(C)c1ccc(C(=O)NCC2(N(C)C)CCCCC2)cc1`, with inactive: -2.26%.

Values taken from PubChem BioAssay AID540308 (The Scripps Research Institute Molecular Screening Center, 2011).
